The values below come from BindingDB's records for US10807988.

Amino acid sequences for entries named in this document (tags omitted).
UniProt P41146, whole entry: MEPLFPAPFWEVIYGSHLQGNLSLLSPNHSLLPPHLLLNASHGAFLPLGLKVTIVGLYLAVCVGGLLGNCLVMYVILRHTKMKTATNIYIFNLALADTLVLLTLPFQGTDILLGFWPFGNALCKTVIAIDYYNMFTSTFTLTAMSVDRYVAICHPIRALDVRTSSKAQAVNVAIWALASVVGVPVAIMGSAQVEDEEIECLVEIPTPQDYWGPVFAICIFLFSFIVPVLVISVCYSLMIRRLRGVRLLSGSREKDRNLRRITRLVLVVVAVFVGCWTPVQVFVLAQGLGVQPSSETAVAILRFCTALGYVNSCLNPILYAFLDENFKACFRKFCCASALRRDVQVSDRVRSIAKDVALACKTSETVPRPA

For the assay, the target named is Nociceptin receptor (Homo sapiens, UniProt P41146). Briefly: ASSAY_NAME: Human Nociceptin/Orphanin FQ Peptide (hNOP) Receptor Binding Assay DESCRIPTION: The hNOP receptor binding assay was performed as homogeneous SPA-assay (scintillation proximity assay) using the assay buffer 50 mM TRIS-HCl. 10 mM MgCl2. 1 mM EDTA (pH 7.4). The final assay volume (250 μl/well) included 0.5 nM of [leucyl-3H]nociceptin as ligand (PerkinElmer Life Sciences. Inc. Boston. A general note: In a scintillation proximity assay essentially only radioactivity close to the scintillant gives light.

In the case of `CN(C)[C@]1(c2ccccc2)CC[C@]2(CC1)CN(c1cnc(-c3cccc4c3CC(=O)N4)nc1)C(=O)N2`, affinity was put at a Ki of 39 nM. In other words, the double-digit nanomolar range.
